From PubChem BioAssay AID861 (The Scripps Research Institute Molecular Screening Center, 2007)
The entries are a selection whose mix differs from that of the whole data set. Active and inactive are the calls of the source. Cut-off read from the data, not from the text of the source: active = inhibition above about 25%; inactive = the rest.

Protein sequences, listed by entry. Tags and fused reporters are not part of them.
UniProt O00206, whole entry: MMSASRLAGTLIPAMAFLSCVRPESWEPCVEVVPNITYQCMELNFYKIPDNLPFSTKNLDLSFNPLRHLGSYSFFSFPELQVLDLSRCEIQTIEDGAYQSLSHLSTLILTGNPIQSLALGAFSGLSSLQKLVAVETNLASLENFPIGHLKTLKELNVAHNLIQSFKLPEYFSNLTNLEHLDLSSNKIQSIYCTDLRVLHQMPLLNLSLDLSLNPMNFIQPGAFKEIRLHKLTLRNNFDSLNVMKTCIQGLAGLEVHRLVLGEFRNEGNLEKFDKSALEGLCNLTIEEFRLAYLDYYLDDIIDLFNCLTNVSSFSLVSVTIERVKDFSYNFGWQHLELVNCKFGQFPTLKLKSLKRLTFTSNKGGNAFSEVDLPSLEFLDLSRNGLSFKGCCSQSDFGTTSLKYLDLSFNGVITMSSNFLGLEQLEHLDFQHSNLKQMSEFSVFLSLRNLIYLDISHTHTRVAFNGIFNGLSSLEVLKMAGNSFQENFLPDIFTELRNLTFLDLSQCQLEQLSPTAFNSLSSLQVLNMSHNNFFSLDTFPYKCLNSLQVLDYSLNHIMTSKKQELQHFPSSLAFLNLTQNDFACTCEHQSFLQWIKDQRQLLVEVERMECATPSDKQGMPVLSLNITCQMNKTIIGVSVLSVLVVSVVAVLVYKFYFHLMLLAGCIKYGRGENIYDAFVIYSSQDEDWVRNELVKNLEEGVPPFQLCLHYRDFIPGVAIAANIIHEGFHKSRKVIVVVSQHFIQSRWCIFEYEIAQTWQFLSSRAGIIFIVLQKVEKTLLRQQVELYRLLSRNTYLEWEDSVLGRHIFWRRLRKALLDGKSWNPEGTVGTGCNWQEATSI

These molecules were tested against Toll-like receptor 4 (Homo sapiens) + Myeloid differentiation primary response protein MyD88 (Homo sapiens) (UniProt O00206+Q99836) (assay: disruptors of TLR4 binding to MyD88 – cell-based, HeLa CL3-4, BLA complementation, FRET ratio, primary screen (AID 861;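 note: 0% = vehicle and 100% = reference inhibitor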)). Details: HeLa CL3-4 TLR4/MyD88 BLA complementation, at 8.4 µM, hits give high values.

SMILES	inhibition
CC1=NCCc2c1[nH]c1ccccc21.O=[N+]([O-])c1cc([N+](=O)[O-])c(O)c([N+](=O)[O-])c1	inactive: 7.78%
CCOC(=O)c1ccc(NP(C)(=O)Oc2cc(C)cc(C)c2)cc1 (centres undefined)	inactive: 9.24%
Cc1cc(C)cc(OP(C)(=O)Nc2ccc(C)cc2C)c1 (centres undefined)	inactive: 10.7%
Cc1ccc(C)c(NP(C)(=O)Oc2ccccc2)c1 (centres undefined)	inactive: -7.31%
Cc1cc(C)cc(OP(C)(=O)Nc2ccccn2)c1 (centres undefined)	inactive: 3.5%
CP(=O)(Nc1cccc(Br)c1)Oc1ccccc1 (centres undefined)	inactive: 8.03%
O=[N+]([O-])c1cc([N+](=O)[O-])c(-n2nnc3ccccc32)c([N+](=O)[O-])c1	inactive: 8.96%
Cc1nc2ccc3ccccc3c2s1.O=[N+]([O-])c1cc([N+](=O)[O-])c(O)c([N+](=O)[O-])c1	inactive: -1.18%
CCCOc1ccc(NP(C)(=O)Oc2ccc(Cl)cc2)cc1 (centres undefined)	inactive: -3.27%
CP(=O)(Nc1ccc(SC(F)(F)F)cc1)Oc1ccccc1 (centres undefined)	inactive: -5.57%
CN1CCCCC1COC(=O)C1(O)c2ccccc2CCc2ccccc21 (centres undefined)	inactive: -14.7%
COc1ccccc1OP(C)(=O)Nc1c(C)cccc1C (centres undefined)	inactive: 7.26%
CP(=O)(Nc1ccccc1Br)Oc1ccccc1 (centres undefined)	inactive: -6.41%
COc1ccccc1OP(C)(=O)Nc1ccccc1 (centres undefined)	inactive: -1.76%
CP(=S)(Nn1cnnc1)Oc1ccccc1 (centres undefined)	inactive: -14.3%
CP(=O)(NC(=O)Nc1ccccc1)Oc1ccccc1 (centres undefined)	inactive: -4.57%
Cc1cc(C)cc(OP(C)(=O)Nc2ccc(SC(F)(F)F)cc2)c1 (centres undefined)	inactive: -11.7%
Cc1cccc(C)c1OP(C)(=O)Nc1ccc(SC(F)(F)F)cc1 (centres undefined)	inactive: -10.8%
CP(=O)(Oc1ccccc1)OC(c1ccccc1)C(F)(F)F (centres undefined)	inactive: 5.18%
CP(=O)(Nc1ccccn1)Oc1ccc(Cl)cc1 (centres undefined)	inactive: -13.1%
CCOC(=O)c1ccc(NP(C)(=O)Oc2ccc(OC)cc2)cc1 (centres undefined)	inactive: 9.86%
CCOP(C)(=S)SCC(=O)NC(C)C(=O)O (centres undefined)	inactive: -5.4%
CCN(CC)CCCOC(=O)C(O)(c1ccccc1)c1ccccc1	inactive: 10.1%

SMILES	inhibition
O=[N+]([O-])c1ccc2c(c1)C=Nc1ccccc1O2	inactive: -3.69%
CC(C)(C)c1ccc(OP(C)(=O)Nc2ccc(SC(F)(F)F)cc2)cc1 (centres undefined)	inactive: -7.31%
Cc1cccc(C)c1OP(C)(N)=O (centres undefined)	inactive: 7.26%
Cc1cc(C)cc(OP(C)(N)=O)c1 (centres undefined)	inactive: -2.89%
COc1ccccc1OP(C)(=O)Nc1cc(Cl)ccc1C (centres undefined)	inactive: -15.5%
COc1ccc(OP(C)(=O)Nc2cccc(F)c2)cc1 (centres undefined)	inactive: 10.7%
COc1ccccc1OP(C)(=O)Nc1ccc(C)cc1 (centres undefined)	inactive: -6.03%
Cc1ccc(NP(C)(=O)Oc2ccccc2)c(C)c1 (centres undefined)	inactive: -14.5%
CCOC(=O)c1ccc(NP(C)(=O)Oc2ccccc2)cc1 (centres undefined)	inactive: -12%
COc1ccccc1OP(C)(=O)Nc1ccc(C)c(C)c1 (centres undefined)	inactive: 6.12%
COc1ccc(OP(C)(=O)Nc2ccccc2Br)cc1 (centres undefined)	inactive: -3.94%
Cc1cc(C)cc(OP(C)(=O)Nc2cccc(C(F)(F)F)c2)c1 (centres undefined)	inactive: -5.35%
CP(=O)(Nc1ccc(Cl)cc1Cl)Oc1ccccc1 (centres undefined)	inactive: 1.89%
CP(=O)(OCCOc1ccccc1)OCCOc1ccccc1	inactive: -3.78%
Cc1nc2ccc3ccccc3c2o1.O=[N+]([O-])c1cc([N+](=O)[O-])c(O)c([N+](=O)[O-])c1	inactive: -3.75%
COc1ccc(OP(C)(=O)Nc2ccccn2)cc1 (centres undefined)	inactive: 1.3%
CN(C)CCOC(=O)C(O)(c1ccccc1)C1CCCC1 (centres undefined)	inactive: -1.99%
CP(=O)(Nc1ccccn1)Oc1ccccc1 (centres undefined)	inactive: 5.45%
COc1ccccc1OP(C)(=O)Nc1ccc(C)cc1C (centres undefined)	inactive: 0.68%
Cc1c(NP(C)(=O)Oc2ccc(C(C)C)cc2)c(=O)n(-c2ccccc2)n1C (centres undefined)	inactive: 11.8%
O=[N+]([O-])c1cc([N+](=O)[O-])c(Nc2ccccn2)c([N+](=O)[O-])c1	inactive: 7.55%
COc1ccccc1OP(C)(=O)Nc1c(C)n(C)n(-c2ccccc2)c1=O (centres undefined)	inactive: -5.95%
CP(=O)(Oc1ccccc1)N1CCOC1=O (centres undefined)	inactive: 3.22%

SMILES	inhibition
CCc1ccc(OP(C)(=O)Nc2cccnc2)cc1 (centres undefined)	inactive: 1.29%
CCN(CC)CC(O)COC(=O)C(O)(c1ccccc1)C1CCCCC1 (centres undefined)	inactive: 9.36%
COc1ccc(OP(C)(=O)Nc2ccc(Br)cc2)cc1 (centres undefined)	inactive: -1.28%
CN(C)C(=O)c1c([N+](=O)[O-])cc([N+](=O)[O-])cc1[N+](=O)[O-]	inactive: 3.86%
COc1ccccc1OP(C)(=O)Nc1ccccc1Br (centres undefined)	inactive: -1.73%
CC(C)(C)c1ccc(OP(C)(=O)O)cc1	inactive: 5.81%
CP(=O)(Nc1ccc(Cl)cc1)Oc1ccc(F)cc1 (centres undefined)	inactive: -3.11%
CCOC(=O)c1ccc(NP(C)(=O)Oc2ccc(Cl)cc2)cc1 (centres undefined)	inactive: 4.96%
CP(=O)(OC12CC3CC(CC(C3)C1)C2)OC12CC3CC(CC(C3)C1)C2	inactive: 4.15%
CN(C)CCOC(=O)C(O)(c1ccccc1)C1CCCCC1 (centres undefined)	inactive: 15.9%
COc1ccc(NP(C)(=O)Oc2ccccc2OC)cc1 (centres undefined)	inactive: -10.7%
COc1ccc(OP(C)(=O)Nc2cccc(Br)c2)cc1 (centres undefined)	inactive: 6.69%
O=[N+]([O-])c1cc([N+](=O)[O-])c(NCC2CCS(=O)(=O)C2)c([N+](=O)[O-])c1 (centres undefined)	inactive: 0.87%
CCOP(C)(=S)SCC(=O)NC(C)(CC)C(=O)O (centres undefined)	inactive: -10.6%
Cc1ccccc1NP(C)(=O)Nc1ccccc1C	inactive: -6.84%
CP(=O)(Nc1ccc2c(c1)OCCO2)Oc1ccccc1 (centres undefined)	inactive: 8.03%
CP(=O)(Nc1ccccc1F)Oc1ccccc1 (centres undefined)	inactive: 3.51%
CC(C)c1ccc(OP(C)(=O)Nc2ccc(SC(F)(F)F)cc2)cc1 (centres undefined)	inactive: 5.88%
O=C(OCCN1CCN(CCOCc2ccccc2)CC1)C(O)(c1ccccc1)c1ccccc1	inactive: 3.38%
CCOC(=O)c1ccc(NP(C)(=O)Oc2ccc(F)cc2)cc1 (centres undefined)	inactive: -8.9%
COc1ccc(OP(C)(=O)Nc2ccc(SC(F)(F)F)cc2)cc1 (centres undefined)	inactive: -7.48%
CP(=O)(Nc1ccccc1)Oc1ccc(F)cc1 (centres undefined)	inactive: 0.66%
CCN(CC)CCCOC(=O)C(O)(c1ccccc1)C1CCCCC1 (centres undefined)	inactive: -9.83%
